# Measurements reported in patent publication US20050250820A1, “Therapeutic modulation of PPARgamma activity” (Amgen Inc., priority 2004, published 2005).
# Sequences of proteins named here, by UniProt entry; tags and fusion partners are left off.
# UniProt P37231, whole entry: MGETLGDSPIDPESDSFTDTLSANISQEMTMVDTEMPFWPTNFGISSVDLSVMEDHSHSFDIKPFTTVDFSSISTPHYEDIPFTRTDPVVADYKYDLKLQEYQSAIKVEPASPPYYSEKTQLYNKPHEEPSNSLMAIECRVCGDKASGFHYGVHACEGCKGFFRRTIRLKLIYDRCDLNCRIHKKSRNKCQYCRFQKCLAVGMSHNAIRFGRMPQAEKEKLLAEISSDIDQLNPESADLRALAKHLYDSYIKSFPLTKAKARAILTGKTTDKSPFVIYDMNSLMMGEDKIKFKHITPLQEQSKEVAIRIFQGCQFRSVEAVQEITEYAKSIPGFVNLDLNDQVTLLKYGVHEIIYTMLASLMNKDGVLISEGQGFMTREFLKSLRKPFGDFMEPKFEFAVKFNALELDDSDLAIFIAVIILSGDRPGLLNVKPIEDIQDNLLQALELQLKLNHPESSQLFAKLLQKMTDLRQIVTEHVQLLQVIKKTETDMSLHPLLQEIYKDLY
# Experiments:
# PPARγ = PPARγ (UniProt P37231); test: PPARγ ligand binding assay utilizing [3H]-BRL 49653 as the radioligand; details: concentration required to reduce specific binding by 50%
# KK-Ay mice = test: anti-diabetic efficacy in KK-Ay mice (change in serum glucose levels); details: 0.018% (30 mg/kg) dietary admixture in powdered diet, change in serum glucose levels compared to untreated control animals
SMILES,IC50 (PPARγ) [nM],KKAy Glucose (KK-Ay mice)
O=S(=O)(Nc1ccc(Sc2ccc(Cl)c(Cl)c2)c(Cl)c1)c1ccc(Cl)c(Cl)c1,< 10000,–
O=S(=O)(Nc1ccc(Sc2ccc(Cl)c(Cl)c2)c(Cl)c1)c1ccc(Cl)cc1Cl,< 1000,–
O=S(=O)(Nc1ccc(Sc2ccc(Cl)c(Cl)c2)c(Cl)c1)c1ccc(I)cc1,< 10000,–

# Further lines, with some results ahead:
IC50 (PPARγ) [nM],SMILES,KKAy Glucose (KK-Ay mice)
< 1000,O=S(=O)(Nc1cc(Cl)c(Nc2nc3ccc(Cl)cc3s2)c(Cl)c1)c1ccc(C(F)(F)F)cc1Cl,+ ((+) 10% to 20%)
< 1000,Cc1ccc2nc(Nc3c(Cl)cc(NS(=O)(=O)c4ccc(C(F)(F)F)cc4Cl)cc3Cl)sc2c1,− ((−) <10%)
